We go through two compounds from PubChem BioAssay AID629 (Emory University Molecular Libraries Screening Center, 2007).

Protein sequences, listed by entry. Tags and fused reporters are not part of them.
UniProt P03372, whole entry: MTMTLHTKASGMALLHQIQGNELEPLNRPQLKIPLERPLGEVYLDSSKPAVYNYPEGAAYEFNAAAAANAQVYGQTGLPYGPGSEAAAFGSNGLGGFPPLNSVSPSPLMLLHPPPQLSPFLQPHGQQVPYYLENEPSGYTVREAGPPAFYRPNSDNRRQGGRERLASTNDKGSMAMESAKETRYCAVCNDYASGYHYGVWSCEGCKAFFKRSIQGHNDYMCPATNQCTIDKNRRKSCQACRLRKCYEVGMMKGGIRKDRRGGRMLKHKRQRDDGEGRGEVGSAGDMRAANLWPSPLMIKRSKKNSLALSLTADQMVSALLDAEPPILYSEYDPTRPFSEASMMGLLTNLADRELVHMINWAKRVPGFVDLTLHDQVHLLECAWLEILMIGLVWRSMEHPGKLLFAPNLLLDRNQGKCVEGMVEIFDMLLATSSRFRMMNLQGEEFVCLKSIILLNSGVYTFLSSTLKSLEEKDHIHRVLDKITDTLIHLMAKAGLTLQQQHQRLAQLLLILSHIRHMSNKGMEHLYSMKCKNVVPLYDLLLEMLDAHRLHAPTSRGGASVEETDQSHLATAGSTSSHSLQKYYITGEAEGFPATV

The entries are a selection whose mix differs from that of the whole data set. Some of these compounds have results that are not shown, active ones among them. The source made the active and inactive calls. No stated cut-off is given here; in the data, active means inhibition above about 50%; inactive means the rest.

One may read the inhibition as the drop in the measured response relative to a control, in per cent.

This experiment has as its target Estrogen receptor (Homo sapiens) (UniProt P03372). In words: ERα–SRC-1 coactivator interaction inhibitors, primary screen, biochemical, TR-FRET, ERα LBD, estradiol-bound (AID 629).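 Further: 0% = receptor plus peptide control and 100% = peptide only without receptor.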 The settings on record: TR-FRET ER-alpha LBD / SRC-1 peptide, at 25.6 µM, active compounds read high. In general terms: Time-resolved FRET reads energy transfer from a long-lived donor to a nearby acceptor.
Turning to `O=C(OC1CN2CCC1CC2)C(CO)(c1ccccc1)c1ccccc1` (configuration not stated), the inhibition is inactive: -6.63%. In the case of `CN(C)c1cccc(C(=O)NCC2(N(C)C)CCCCC2)c1`, the inhibition was inactive: 3.39%.
